The record followed here is publication PMC6930675, “Discovery and Characterisation of Dual Inhibitors of Tryptophan 2,3-Dioxygenase (TDO2) and Indoleamine 2,3-Dioxygenase 1 (IDO1) Using Virtual Screening” (Molecules, 2019).

Chains of the proteins cited; added tags and fusions are not shown. Lines headed by an entry give the natural chain unless they say otherwise; changes in a name come on top.
UniProt P48775: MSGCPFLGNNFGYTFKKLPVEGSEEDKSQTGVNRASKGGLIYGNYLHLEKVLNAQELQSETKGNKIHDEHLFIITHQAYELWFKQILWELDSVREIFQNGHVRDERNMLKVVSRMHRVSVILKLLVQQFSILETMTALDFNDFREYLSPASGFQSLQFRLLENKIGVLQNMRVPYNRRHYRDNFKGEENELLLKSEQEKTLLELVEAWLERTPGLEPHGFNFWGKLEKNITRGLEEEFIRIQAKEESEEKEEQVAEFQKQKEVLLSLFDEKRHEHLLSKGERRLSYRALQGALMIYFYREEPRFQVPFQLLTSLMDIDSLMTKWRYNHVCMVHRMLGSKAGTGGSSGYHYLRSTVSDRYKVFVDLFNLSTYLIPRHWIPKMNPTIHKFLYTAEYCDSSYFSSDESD

The experiment addresses T1, TDO2 (A172 cells) (Homo sapiens, UniProt P48775).
T1 construct: identify cell lines endogenously expressing only IDO1, only TDO2, and both enzymes simultaneously; endogenous in cells; host or cells: A172 glioblastoma cell line
The experiment is described as follows: Cell based kynurenine assay in A172 glioblastoma line (TDO2 expressor). The conditions noted are these: 18 h, read-out: IC50, inhibition of kynurenine secretion. As to the method: Breast cancer cell lines MCF7, MDA-MB-231, BT549, Hs578T; ovarian cell line SKOV3; glioblastoma cell line A172 and lung cancer cell line H460 were grown in α-MEMGibco, Grand Island, NY, USA; ThermoFisher catalogue number 12000022) containing 5% foetal calf serum (Moregate Biotech, Hamilton, New Zealand), insulin/transferrin/selenium supplement (Roche, Ref-11074547001), added according to the manufacturer’s instructions, as well as penicillin/streptomycin (100 U/mL and 100 μg/mL, respectively). The amount of kynurenine produced by the cells was measured as described previously. […] After spinning the plates for 20 min at 2500 g, the supernatants were mixed at a 1:1 ratio with 4-(dimethylamino)benzaldehyde (20 mg/mL in acetic acid; Sigma) and the absorbance was read at 480 nm on an EnSpire 2300 Multimode Plate Reader (Perkin-Elmer, Singapore, Singapore). […] After 1 h of incubation at 37 °C, the absorbance was measured at 440 nm. WST-1 is reduced on the outer membrane of viable cells to a soluble formazan by reducing equivalents such as NAD(P)H. The absorbance measured at 440 nm indicates the number of metabolically active cells in the culture and represents a surrogate marker of cell viability. […]

Regarding `Fc1ccc2c(/C=C\c3cccnc3)c[nH]c2c1` [680C91], the half-maximal inhibitory concentration (IC50) came to 0.38 µM.
